Experimental data taken from PubChem BioAssay AID588676 (Johns Hopkins Ion Channel Center, 2011).
Only a part is listed here, and it is no random draw. Active and inactive are the calls of the source.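 The calls were made as follows: active = calcium-response B-score plate-corrected more than 3 library SD below zero, starting fluorescence within 5 deviations, no agonist response on first addition; inactive = the rest.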

Sequences of proteins named here, by UniProt entry; tags and fusion partners are left off.
UniProt Q96LB2, whole entry: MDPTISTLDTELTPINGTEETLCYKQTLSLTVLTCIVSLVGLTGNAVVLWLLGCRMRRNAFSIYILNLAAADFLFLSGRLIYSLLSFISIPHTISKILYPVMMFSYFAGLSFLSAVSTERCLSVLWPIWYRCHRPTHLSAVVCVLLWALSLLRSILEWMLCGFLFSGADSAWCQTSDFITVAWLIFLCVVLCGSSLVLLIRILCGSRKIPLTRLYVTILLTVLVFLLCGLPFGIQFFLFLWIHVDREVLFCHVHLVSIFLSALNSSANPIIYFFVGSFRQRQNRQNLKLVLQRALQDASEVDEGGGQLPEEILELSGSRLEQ

These compounds were tested against Mas-related G-protein coupled receptor member X1 (Homo sapiens) (UniProt Q96LB2) (assay: antagonists of human MrgX1 receptor, primary screen, HEK293 cells, Fluo-4 calcium flux (AID 588676)). Details: Fluo-4, BAM8-22 antagonism, at 10 µM.

Row | Compound | outcome
1 | CCN(CC)CCCOC(=O)C(O)(c1ccccc1)c1ccccc1 | inactive
2 | Cc1cc(=O)[nH]c(N[N+](=O)[O-])n1 | inactive
3 | O=C(OC1CN2CCC1CC2)C12CC3CC(CC(C3)C1)C2 (configuration not stated) | inactive
4 | Cc1c2c(nc3ccccc13)SC(C(Cl)Cl)C2 (configuration not stated) | inactive
5 | COc1cc(I)ccc1[As](=O)(O)O | inactive
6 | COc1ccc2nc(NP(=O)(c3ccccc3)c3ccccc3)sc2c1 | inactive
7 | COc1ccc(N/C(=N/P(=O)(N2CCOCC2)N2CCOCC2)N2CCOCC2)cc1 | inactive
8 | O=[As](O)(c1ccc(O)cc1)c1ccccc1O | inactive
9 | C[As](=O)(O)c1cccc(C(=O)O)c1 | inactive
10 | O=[N+]([O-])c1cc([N+](=O)[O-])c(Nc2cccnc2)c([N+](=O)[O-])c1 | inactive
11 | O=[N+]([O-])c1ccc2c(c1)C=Nc1ccccc1O2 | inactive
12 | Cc1ccc2nc3c(c(C)c2c1)CC(C(Cl)Cl)S3 (configuration not stated) | inactive
13 | Cc1cccc(C)c1OP(C)(N)=O (configuration not stated) | inactive
14 | Cc1ccc(OP(=O)(Nc2ccc([N+](=O)[O-])cn2)Oc2ccc(C)cc2)cc1 | inactive
15 | CC(C)(C)c1ccc(OP(C)(=O)Nc2ccc(SC(F)(F)F)cc2)cc1 (configuration not stated) | inactive
16 | CC(C)c1ccc(OP(=O)(Nc2ccccn2)Oc2ccccc2F)cc1 (configuration not stated) | inactive
17 | Cc1ccc(NP(C)(=O)Oc2ccccc2)c(C)c1 (configuration not stated) | inactive
18 | COc1ccccc1OP(C)(=O)Nc1ccc(C)cc1 (configuration not stated) | inactive
19 | ClCCSc1nnc(-c2cccnc2)o1 | inactive
20 | CCOC(=O)c1ccc(NP(C)(=O)Oc2ccccc2)cc1 (configuration not stated) | inactive
21 | Cc1cc(C)cc(OP(C)(N)=O)c1 (configuration not stated) | inactive
22 | COc1ccc(OP(C)(=O)Nc2cccc(F)c2)cc1 (configuration not stated) | inactive
23 | O=[N+]([O-])c1cc([N+](=O)[O-])c(-c2ccn[nH]2)s1 | inactive
24 | CC(C)NC(=O)NP(=O)(Oc1ccccc1)Oc1ccccc1 | inactive

Row | Compound | outcome
25 | COc1ccccc1OP(C)(=O)Nc1cc(Cl)ccc1C (configuration not stated) | inactive
26 | CCN(CC)C(=S)SC(NC=O)C(Cl)(Cl)Cl (configuration not stated) | inactive
27 | CCOC(=O)Nc1ccc([As](=O)(O)O)c(O)c1 | inactive
28 | Cc1cc(SC(NC(=O)c2ccccc2)C(Cl)(Cl)Cl)nc(C(C)C)n1 (configuration not stated) | inactive
29 | CCOC(=O)Nc1cccc([As](=O)(O)O)c1 | inactive
30 | CP(=S)(Nn1cnnc1)Oc1ccccc1 (configuration not stated) | inactive
31 | O=[N+]([O-])c1ccc(Nc2ccc(Oc3ccc([N+](=O)[O-])cc3[N+](=O)[O-])cc2)c([N+](=O)[O-])c1 | inactive
32 | CP(=O)(Nc1ccccc1Br)Oc1ccccc1 (configuration not stated) | inactive
33 | COc1ccccc1OP(C)(=O)Nc1ccccc1 (configuration not stated) | inactive
34 | Cc1cc(SC(NC=O)C(Cl)(Cl)Cl)ncn1 (configuration not stated) | inactive
35 | O=P(Nc1ccccn1)(c1cccc2ccccc12)c1cccc2ccccc12 | inactive
36 | CP(=O)(Oc1ccccc1)OC(c1ccccc1)C(F)(F)F (configuration not stated) | inactive
37 | COP1(=S)c2c(C)nn(CCC#N)c2N=C(c2ccc(F)cc2)N1C (configuration not stated) | inactive
38 | CP(=O)(Nc1ccc(SC(F)(F)F)cc1)Oc1ccc(Cl)cc1 (configuration not stated) | inactive
39 | Cc1cccc(C)c1OP(C)(=O)Nc1ccc(SC(F)(F)F)cc1 (configuration not stated) | inactive
40 | Cc1cc(C)cc(OP(C)(=O)Nc2ccc(SC(F)(F)F)cc2)c1 (configuration not stated) | inactive
41 | O=C(Nc1ccncc1[N+](=O)[O-])c1ccc([N+](=O)[O-])cc1[N+](=O)[O-] | inactive
42 | CP(=O)(NC(=O)Nc1ccccc1)Oc1ccccc1 (configuration not stated) | inactive
43 | O=C(COc1ccccc1)OC1CN2CCC1CC2 (configuration not stated) | inactive
44 | CCc1ccc(OP(C)(=O)N2CCN(c3ccc([N+](=O)[O-])cc3)CC2)cc1 (configuration not stated) | inactive
45 | O=[N+]([O-])c1cc([N+](=O)[O-])c(O)c([N+](=O)[O-])c1.c1ccc(Oc2ccncc2)cc1 | inactive
46 | CCOC(=O)c1ccc(NC(=O)C(C)(CCl)SC)cc1 (configuration not stated) | inactive
47 | CCOC(=O)c1ccc(NP(C)(=O)Oc2ccc(OC)cc2)cc1 (configuration not stated) | inactive
48 | CCOP(C)(=S)SCC(=O)NC(C)C(=O)O (configuration not stated) | inactive

Row | Compound | outcome
49 | O=C(OC1CN2CCC1CC2)c1cccc([N+](=O)[O-])c1 (configuration not stated) | inactive
50 | CP(=O)(Nc1ccccn1)Oc1ccc(Cl)cc1 (configuration not stated) | inactive
51 | CCC(C)N(CC(C)C)C(=S)SC(NC(C)=O)C(Cl)(Cl)Cl (configuration not stated) | inactive
52 | CCOP(=O)(Nc1ccc(C)cn1)OCC | inactive
53 | CN(CCCl)Cc1cc(Cl)c(NC2=NCCN2)c(Cl)c1 | inactive
54 | O=[N+]([O-])c1cc([N+](=O)[O-])c(-n2nnc3ccccc32)c([N+](=O)[O-])c1 | inactive
55 | CCOP(=O)(NC(=NC(C)c1ccccc1)NC(C)c1ccccc1)OCC (configuration not stated) | inactive
56 | CCC1=CC2Cc3nc4ccc(Cl)cc4c(N)c3C(C1)C2 (configuration not stated) | inactive
57 | O=P1(Nc2ccccn2)COc2ccccc2OC1 | inactive
58 | CC(C)(C)C(=O)NC(Sc1ncccn1)C(Cl)(Cl)Cl (configuration not stated) | inactive
59 | Clc1n[nH]nc1-c1nn[nH][15n]1 | inactive
60 | COc1ccccc1CNC(=O)COC(=O)C(O)(c1ccccc1)c1ccccc1 | inactive
61 | O=[N+]([O-])c1cc([N+](=O)[O-])c(-c2cnn(-c3ccccc3)c2)c([N+](=O)[O-])c1 | inactive
62 | Cc1nc2ccc3ccccc3c2s1.O=[N+]([O-])c1cc([N+](=O)[O-])c(O)c([N+](=O)[O-])c1 | inactive
63 | CC1(CBr)Cn2c(nc3ccccc3c2=O)S1 (configuration not stated) | inactive
64 | O=[As](O)(c1ccccc1Br)c1ccccc1Br | inactive
65 | CN(C(=O)Cc1ccc(Cl)c(Cl)c1)[C@@H]1CCCC[C@H]1N1CCCC1 | inactive
66 | CC(C)/C=N\N=C(\N)N[N+](=O)[O-] | inactive
67 | COc1cc(C2NCCC3(OCCO3)C2(C)C)cc(OC)c1OC.O=[N+]([O-])c1cc([N+](=O)[O-])c(O)c([N+](=O)[O-])c1 (configuration not stated) | inactive
68 | Cc1ccc(C(=O)OC2CN3CCC2CC3)cc1 (configuration not stated) | inactive
69 | CC1CCC(C(C)C)C(OP(=O)(Nc2ccccn2)c2ccccc2)C1 (configuration not stated) | inactive
70 | Cc1nn(-c2ccccc2)c2c1P(=O)(N1CCOCC1)N(C)C(c1ccccc1)=N2 (configuration not stated) | inactive
71 | O=C(/C=C/c1ccccc1)OC1CN2CCC1CC2 (configuration not stated) | inactive
72 | CCOC(=O)C(CC)C1=NC(C)(C)Cc2ccccc21.O=[N+]([O-])c1cc([N+](=O)[O-])c(O)c([N+](=O)[O-])c1 (configuration not stated) | inactive
